From PubChem BioAssay AID1906 (The Scripps Research Institute Molecular Screening Center, 2009)
The entries are a selection whose mix differs from that of the whole data set. Activity calls are given as the source filed them.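 Rule for the calls: active = inhibition above the mean of all tested compounds plus 3 SD, set per screening campaign (cut at about 17% in these data); inactive = the rest.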

system: cathepsin L1 (Fasciola hepatica); assay: Fasciola hepatica cathepsin L1 inhibitors, primary screen, counter-screen for PFM18AAP inhibitor project, biochemical, QFRET, fluorogenic peptide substrate (AID 1906);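 note: 0% = plate median of test compound wells and 100% = 1 µM Z-Phe-Ala-diazomethylketone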; conditions: recombinant F. hepatica cathepsin L1, Z-Leu-Arg-MCA fluorescence; at 5.96 µM; hits give high values

SMILES | inhibition
N#CCCN(C(=O)COC(=O)C(O)(c1ccccc1)c1ccccc1)c1ccc(F)cc1 | inactive: 2.9%
CN(C(=O)Cc1ccccc1)[C@@H]1CC[C@]2(CCCO2)C[C@H]1N1CCCC1 | inactive: -4.91%
CCOP1(=S)c2c(C)nn(CCC#N)c2N=C(c2ccc(F)cc2)N1C (configuration not stated) | inactive: -2.14%
CS(=O)(=O)c1cc([N+](=O)[O-])c2no[n+]([O-])c2c1 | inactive: -1.31%
CCOP1(=S)c2c(C)nn(CCC#N)c2N=C(c2ccccc2F)N1C (configuration not stated) | inactive: -1.66%
O=P(Nc1nccs1)(c1ccccc1)c1nc2ccccc2s1 (configuration not stated) | inactive: 0.98%
O=P(Nc1nccs1)(Oc1ccccc1)Oc1ccccc1 | inactive: -2.89%
O=C(O)COc1ccc([As](=O)(O)O)cc1[N+](=O)[O-] | inactive: -0.55%
Nc1ccccc1[As](=O)(O)c1ccccc1 | inactive: 0.56%
CCCOP(=S)(Nc1nc(N)cc(=O)[nH]1)OCCC | inactive: -3.43%
Cc1ccc(NCCc2c([N+](=O)[O-])cc([N+](=O)[O-])cc2[N+](=O)[O-])cc1 | inactive: 6.92%
Nc1cccc2c([As](=O)(O)O)cccc12 | active: 61.8%
COc1cc(C2NCCC3(OCCO3)C2(C)C)cc(OC)c1OC (configuration not stated) | inactive: -2.46%
CCOP(=O)(Nc1cccc2ccccc12)OCC | inactive: -2.96%
COc1cc(C(=O)NCC2(N3CCOCC3)CCCCC2)cc(Cl)c1OC(C)C | inactive: 1.78%
O=[As](O)(O)c1cccnc1 | inactive: 7.06%
CS(=O)(=O)c1ccc(Cl)c(NC(=O)COC(=O)C(O)(c2ccccc2)c2ccccc2)c1 | inactive: -63.4%
O=C(OC1CN2CCC1CC2)c1ccc(Cl)cc1 (configuration not stated) | inactive: 0.59%
O=[As](O)(c1cccc(O)c1)c1cccc(O)c1 | inactive: -2.23%
Cc1cccc(OCC(=O)OC2CN3CCC2CC3)c1 (configuration not stated) | inactive: -2.58%
COc1ccccc1CNC(=O)COC(=O)C(O)(c1ccccc1)c1ccccc1 | inactive: -4.96%

SMILES | inhibition
O=[As](O)(c1ccccc1Br)c1ccccc1Br | inactive: 0.67%
CC1(CBr)Cn2c(nc3ccccc3c2=O)S1 (configuration not stated) | inactive: -0.48%
CN(C(=O)Cc1ccc(Cl)c(Cl)c1)[C@@H]1CCCC[C@H]1N1CCCC1 | inactive: 1.82%
CC(C)/C=N\N=C(\N)N[N+](=O)[O-] | inactive: 1.61%
CN(CCCl)Cc1cc(Cl)c(NC2=NCCN2)c(Cl)c1 | inactive: -3.9%
CCOP(=O)(Nc1ccc(C)cn1)OCC | inactive: -1.61%
CCC1=CC2Cc3nc4ccc(Cl)cc4c(N)c3C(C1)C2 (configuration not stated) | inactive: 0.99%
O=P1(Nc2ccccn2)COc2ccccc2OC1 | inactive: -3.67%
CCOP(=O)(NC(=NC(C)c1ccccc1)NC(C)c1ccccc1)OCC (configuration not stated) | inactive: -1.77%
Clc1n[nH]nc1-c1nn[nH][15n]1 | inactive: 7.06%
CC(C)(C)C(=O)NC(Sc1ncccn1)C(Cl)(Cl)Cl (configuration not stated) | inactive: -0.1%
O=P1(Nc2ncccn2)COc2ccccc2OC1 | inactive: -2.83%
O=P1(Nc2ccc(Br)cn2)COc2ccccc2OC1 | inactive: -5.8%
Cc1ccc(OCC(=O)OC2CN3CCC2CC3)cc1 (configuration not stated) | inactive: 1.28%
O=[As](O)(c1cccs1)c1cccs1 | inactive: 2.08%
Nc1cccc([As](=O)(O)c2ccccc2)c1 | inactive: -1.05%
Cc1nn(-c2ccccc2)c2c1P(=O)(N1CCOCC1)N(C)C(c1ccccc1)=N2 (configuration not stated) | inactive: -0.74%
Cc1ccc(C(=O)OC2CN3CCC2CC3)cc1 (configuration not stated) | inactive: -4.89%
CC1CCC(C(C)C)C(OP(=O)(Nc2ccccn2)c2ccccc2)C1 (configuration not stated) | inactive: 2.2%
O=C(/C=C/c1ccccc1)OC1CN2CCC1CC2 (configuration not stated) | inactive: -4.17%
CN(C)C1(CNC(=O)c2ccc(S(C)(=O)=O)cc2)CCCCC1 | inactive: -2.17%
